Yeast UUG start – modulators of yeast start codon fidelity, primary screen, whole organism, S. cerevisiae, single point, plate reader | AID 602363, 2012 | actives 0.13% (n = 350,000) | activity score, % at 18.7 µM | S. cerevisiae UUG-firefly luciferase reporter, luminescence/redox ratio;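 active means replicate mean at a twofold rise or more, about +100% in these data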;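 further: firefly luciferase made from a UUG start codon reports start codon fidelity; reporter light over untreated wells divided by growth signal over untreated wells; some hits fall short of that in this replicate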
miR122 inh – inhibitors of miR-122 in Huh7 cells. Huh7 miR-122 Renilla luciferase sensor, 48 h; neutral wells = 0, positive control = 100. activation (reporter increase), % at 12.5 µM. 340,000 tested, 0.3% active;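 active means mean replicate activation score at least 90 and every replicate individually at or above 90; inconclusive means only one of the two criteria met; inactive means neither criterion met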;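 further: higher luciferase means less miR-122 activity so hits act as miR-122 inhibitors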
PGC1a acetyl inh – PGC1a acetylation modulation, inhibitor mode. 350,000 tested, 0.17% active. U2OS PGC1a acetylation, AlphaScreen anti-acetyl-lysine; with virally co-expressed GCN5 acetyltransferase. inhibition, % at 15.6 µM;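 active means every replicate shows inhibition of at least 40%; inconclusive means mean inhibition at least 40% but some replicate below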;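 further: 0% = neutral control wells and 100% = positive control wells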
MITF TRPM1 inh – MITF TRPM1 promoter inhibition in SK-MEL-5 cells; SK-MEL-5 TRPM1 promoter luciferase, 24 h; 330,000 tested, 0.83% active; inhibition, % at 12.5 µM;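 active means mean inhibition across replicates of 60% or more, whatever share of single replicates reaches that level; inconclusive means some that reach 60%, reason not given; inactive means mean inhibition across replicates below 60%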
MITF act – MITF TRPM1 promoter activation in melanoma cells. AID 588334. activation, % at 12.5 µM. 300,000 tested, 0.75% active. SK-MEL-5 TRPM1-promoter luciferase, 24 h; % of positive control, neutral wells = 0;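 active means mean activation of at least 80% with every replicate also reaching 80%; inconclusive means mean reaches 80% but some replicate falls short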;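 further: 0% = neutral control wells and 100% = parthenolide positive control wells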
Wnt bcat act – activators of Wnt/beta-catenin signaling; Wnt/beta-catenin reporter cell assay, activator, plate reader; activation, % at 9.35 µM; 300,000 tested, 1.2% active; AID 743398; in the data active means activation above about 30%, passing the limit was not always enough; inconclusive means no clear call, values can overlap the other calls;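 further: 0% = neutral control wells and 100% = positive control wells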
C2C12 COX5a inh – reduces COX5a expression driven by PGC-1a in C2C12 myotubes. shares compounds with PGC1a acetyl inh. C2C12 myotubes PGC-1a adenovirus, COX5a qPCR. maximal activity, %. 45 tested, under 10 active. AID 743461;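 active means fitted dose curve reaching 40% activity at or below the highest valid dose tested; inconclusive means flat fit between 30% and 70%, or an unusable fit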
AID743468 – change in PGC-1a target gene PDK4 expression, dose response, C2C12 myotubes, RT-qPCR, cherry-pick. 45 tested, under 10 active. PGC-1a adenovirus, PDK4 mRNA qPCR. PDK4 expression increase, % at 19.5 µM. shares compounds with PGC1a acetyl inh;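 active means fitted curve reaching a 40% PDK4 expression rise at or below the top valid tested dose; inconclusive means no clear call, values can overlap the other calls; inactive means the rest, including shifts the wrong way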
The depositor's hits bear a star; ? = inconclusive; . = no result; [ ] = dose if it differs, or a comment. An excerpt weighted towards active compounds, which were near 2.1% of everything screened.

SMILES	Yeast UUG start	miR122 inh	PGC1a acetyl inh	MITF TRPM1 inh	MITF act	Wnt bcat act	C2C12 COX5a inh	AID743468
C[C@H](CO)N1C[C@H](C)[C@H](CN(C)Cc2ccc(Cl)c(Cl)c2)Oc2ccc(NS(=O)(=O)c3cccs3)cc2CC1=O	4	-1[16.7 µM]	-3	.	.	.	.	.
CCC(=O)N(C)C[C@@H]1Oc2cc(C#CC(C)(C)O)ccc2S(=O)(=O)N([C@@H](C)CO)C[C@H]1C	6	-4[16.7 µM]	7	.	.	.	.	.
CS(=O)c1nc(-c2ccc(Br)cc2)cc(-c2ccccc2)c1C#N (stereo unspecified)	-3	.	91*	78*	-80	-12	-38	11
CCC(=O)N(C)C[C@H]1Oc2cc(-c3cccc(OC)c3)ccc2S(=O)(=O)N([C@H](C)CO)C[C@H]1C	1	-6[16.7 µM]	-11	.	.	.	.	.
Cc1cccc(NC(=O)CNC(=O)Cn2ncc(Cl)c(Cl)c2=O)c1C	-27	38	?	85*	-85	.	-39	26
Cc1nc(Nc2ccccc2)sc1C(=O)Nc1ccccc1	.	.	.	-57	62	15	.	.
Cc1nc(Nc2ccc(S(N)(=O)=O)cc2)sc1C(=O)Nc1ccccc1	.	.	?	-7	14	-2	-26	-8
CCN1[C@@H]2c3ccc(-c4ccc(F)cc4)c(=O)n3C[C@@H]2[C@@H](CO)[C@@H]1C(=O)N(C)C	.	0[16.7 µM]	-6	.	.	.	.	.
COc1cccc(S(=O)(=O)N2C[C@@H](O)COC[C@@H]3O[C@H](CC(=O)N4CCN(c5ccccc5)CC4)CC[C@H]32)c1	10	-7[16.7 µM]	-1	.	.	.	.	.
O=C1c2ccccc2OC2(C=Cc3ccccc3O2)N1Cc1ccccc1 (stereo unspecified)	10	-1	-12	14	-11	.	.	.
Cc1cc2c(c(/C=C/C(=O)c3ccccc3)c1)OC1(C=C2)Oc2ccccc2C(=O)N1C (stereo unspecified)	.	.	50*	40	-39	3	-44	-53
COc1ccc(NC(=O)N2CC(=O)N3[C@H](C2)[C@H](c2ccc(C4=CCCC4)cc2)[C@@H]3CO)cc1	.	.	4	.	.	.	.	.

One compound at a time, from the list above:
Entry for `O=C1c2ccccc2OC2(C=Cc3ccccc3O2)N1Cc1ccccc1` (stereo unspecified) = Yeast UUG start: 10; miR122 inh: -1; PGC1a acetyl inh: -12; MITF TRPM1 inh: 14; MITF act: -11; Wnt bcat act: .; C2C12 COX5a inh: .; AID743468: .
Entry for `Cc1nc(Nc2ccc(S(N)(=O)=O)cc2)sc1C(=O)Nc1ccccc1` = Yeast UUG start: .; miR122 inh: .; PGC1a acetyl inh: ?; MITF TRPM1 inh: -7; MITF act: 14; Wnt bcat act: -2; C2C12 COX5a inh: -26; AID743468: -8
